Measured values: publication PMC2911657 (The Journal of Cell Biology, 2010)

Protein sequences, listed by entry. Tags and fused reporters are not part of them.
UniProt Q96GD4, whole entry: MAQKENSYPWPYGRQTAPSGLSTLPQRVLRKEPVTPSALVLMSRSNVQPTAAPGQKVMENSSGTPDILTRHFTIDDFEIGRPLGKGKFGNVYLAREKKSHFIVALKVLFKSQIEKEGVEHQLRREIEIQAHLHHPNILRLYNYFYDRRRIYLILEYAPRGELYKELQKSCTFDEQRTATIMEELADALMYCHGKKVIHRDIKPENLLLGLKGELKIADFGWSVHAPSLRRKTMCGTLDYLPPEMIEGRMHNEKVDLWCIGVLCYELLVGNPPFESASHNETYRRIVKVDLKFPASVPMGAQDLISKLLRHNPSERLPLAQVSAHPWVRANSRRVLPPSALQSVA

Key:
MPS1 [1] = molecular target: T1, MPS1 (Homo sapiens, UniProt P33981); test: Kinetochore localization of MPS1, immunofluorescence; format: cell-based; details: 0.5 µM; nocodazole
T1 sequence (P33981 1-857): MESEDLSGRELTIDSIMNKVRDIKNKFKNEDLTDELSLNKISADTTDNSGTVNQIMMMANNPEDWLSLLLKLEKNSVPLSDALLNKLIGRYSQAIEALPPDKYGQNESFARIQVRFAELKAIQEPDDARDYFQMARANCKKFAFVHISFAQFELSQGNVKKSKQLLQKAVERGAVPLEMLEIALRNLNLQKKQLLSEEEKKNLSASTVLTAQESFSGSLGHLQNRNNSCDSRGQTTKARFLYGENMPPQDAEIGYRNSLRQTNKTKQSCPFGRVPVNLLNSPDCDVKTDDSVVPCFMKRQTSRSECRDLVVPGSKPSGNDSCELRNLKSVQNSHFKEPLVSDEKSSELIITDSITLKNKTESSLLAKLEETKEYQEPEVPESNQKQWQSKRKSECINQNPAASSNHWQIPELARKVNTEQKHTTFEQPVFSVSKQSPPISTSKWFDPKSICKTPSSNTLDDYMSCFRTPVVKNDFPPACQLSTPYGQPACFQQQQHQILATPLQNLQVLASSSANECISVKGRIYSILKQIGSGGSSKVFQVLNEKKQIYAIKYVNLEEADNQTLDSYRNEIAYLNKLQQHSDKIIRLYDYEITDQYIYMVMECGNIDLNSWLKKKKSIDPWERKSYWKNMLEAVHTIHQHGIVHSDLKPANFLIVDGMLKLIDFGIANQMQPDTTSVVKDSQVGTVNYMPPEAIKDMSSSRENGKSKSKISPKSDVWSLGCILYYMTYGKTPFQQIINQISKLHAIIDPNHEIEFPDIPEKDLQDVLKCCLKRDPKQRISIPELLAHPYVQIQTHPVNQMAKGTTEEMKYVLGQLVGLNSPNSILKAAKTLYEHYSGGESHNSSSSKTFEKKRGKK

HeLa cells [2] = test: Spindle checkpoint: duration of mitotic arrest, time-lapse video microscopy; format: cell-based, human; details: 0.33 µM or 3.3 µM nocodazole
[3] = tested on: P-S10-H3 (AURORA B substrate); test: P-S10-H3 levels by Western blotting in mitotic HeLa cell lysates; format: cell-based, human
MPS1 [4] = molecular target: T1, MPS1; details: 0.5 µM
HeLa cells [5] = test: Cytokinesis, time-lapse experiment; format: cell-based, human
[6] = molecular target: human AURORA B1–344–INCENP835–903 complex (Homo sapiens, UniProt Q96GD4); test: In vitro kinase assay on AURORA B–INCENP complex, substrate histone H3; format: biochemical
[7] = tested on: P-S10-H3 (AURORA B substrate); details: immunofluorescence

- MPS1 kinetochore staining (MPS1 [1]): strong kinetochore staining
- inhibition of MPS1 autophosphorylation (MPS1 [4]): completely inhibits
- AURORA B IC50 above the IC50 of hesperadin [6]: ~30 fold
Structure (SMILES): c1nc2nc(Nc3ccc(N4CCOCC4)cc3)nc(NC3CCCCC3)c2[nH]1 [reversine]
- concentration at which spindle checkpoint override is complete (HeLa cells [2]): 1.0 µM
- concentration above which AURORA B P-T232 phosphorylation is affected (AURORA B (P-T232)): above 2 µM
- concentration inhibiting P-S10-H3 [3]: 2–5 µM
- concentration range in which cytokinesis is impaired (HeLa cells [5]): 2 to 5 µM
- concentration above which P-S10-H3 signal is no longer visible [7]: > 5 µM
